Test results published in paper PMC5290001 (Clinical cancer research : an official journal of the …, 2016).

Legend:
[1] = Veliparib plasma pharmacokinetics; format: in vivo, human
[2] = Temozolomide plasma pharmacokinetics; format: in vivo, human
[3] = combination (day 8) versus alone (day 1)

Structure (SMILES)	Accumulation index for AUC [1, 3]	Accumulation index for Cmax [1, 3]	V/F ([1]; veliparib 40 mg alone (day 1), temozolomide dose 200 mg/m^2/day, n=1)	Accumulation index for AUC ([2]; combination with veliparib versus alone)	Cl/F ([2]; temozolomide 200 mg/m^2/day in combination with veliparib 20–200 mg (day 8))
C[C@]1(c2nc3c(C(N)=O)cccc3[nH]2)CCCN1 [Veliparib, veliparib]	1.38 ± 0.52	1.66 ± 0.62	90 (1) L	–	–
Cn1nnc2c(C(N)=O)ncn2c1=O [Temozolomide, temozolomide]	–	–	–	0.89 ± 0.26	10.1±2.7 (25) L/h
